Measurements as given in patent US20220062371A1, “LIGAND-DRUG-CONJUGATES AS SUBSTRATES FOR SELECTIVE CLEAVAGE BY THE EXOPEPTIDASE ACTIVITY OF CATHEPSIN B” (DEBIOPHARM RESEARCH & MANUFACTURING S.A., priority 2017, published 2022).
pIC50: −log10 of the molar value. Read-outs that look alike come from different tables or passages of the source.

Tests used:
[1] = test system: SK-BR-3 (ErbB2-expressing) cells; assay: Binding affinity assay of ADC1 (flow cytometry); conditions: SK-BR-3 versus ErbB2-negative MDA-MB-231
Experimental: The binding affinity of antibody-drug conjugates according to the present invention was assessed as follows.
For SK-BR-3 cells, the concentration of both compounds ranged from 3 μg/mL to 3×10^−4 μg/mL ( 1/10 dilutions). For MDA-MB-231 cells, only the 3 μg/mL concentration was used for both compounds. Next, cells were incubated with a secondary goat anti-human antibody conjugated with Alexa 488 (BioLegend) and a live/dead stain prior analysis on a BD LSRII instrument. Error bars: SD (n=2). Raw data were analyzed in FlowJo (FlowJo).

[2] = test system: MDA-MB-231 (ErbB2 negative) cells; assay: Cytotoxic activity, Alamar Blue assay; format: cell-based; conditions: read-out: Relative IC50 at 96 h (day 4)
Experimental: (§1) Log phase cultures of cell lines SK-OV-3 (ErbB2-expressing), SK-BR-3 (ErbB2-expressing), BT-474 (ErbB2-expressing) and MDA-MB-231 (ErbB2 negative) were collected and cells plated at seeding densities ranging from 1,500 to 12,000 cells/well in 96-well microtiter plates according to pre-determined conditions.
(§2) Assessment of cellular growth was done using Alamar Blue (available from Thermo Fisher Scientific) dye reduction assay. Alamar Blue was added to cells to constitute 10% culture volume. Cells were incubated for 4 to 6 hours, and dye reduction was measured by fluorescence on an EnSpire plate reader (Perkin Elmer). Background corrected fluorescence measurements were transformed in % scale by considering vehicle value as 100% activity (relative measurements). Next, relative measurements were analyzed using GraphPad Prism software to derive relative IC50. All experiments were done twice with 3 replicates per concentration. Error bars: SEM (n=3). Cytotoxicity of AF and AF-Arg on ErbB2-expressing SK-OV-3 and SK-BR-3 cells after 72 and 120 h of treatment. SK-OV-3 and SK-BR-3 cells were seeded the day before treatment in complete culture medium. After overnight resting, cells were treated with decreasing concentrations of test compounds in complete culture medium (AF: 10 μM-1 pM; AF-Arg: 10 μM-1 pM, log-dilution).
(§3) SK-OV-3, SK-BR-3 and MDA-MB-231 cells were seeded the day before treatment in complete culture medium.
BT-474 and MDA-MB-231 cells were seeded the day before treatment in complete culture medium.

[3] = test system: SK-OV-3 (ErbB2-expressing) cells; assay: Cytotoxic activity, Alamar Blue assay; format: cell-based
Experimental: as §1, §2, §3

[4] = test system: SK-BR-3 (ErbB2-expressing) cells; assay: Cytotoxic activity, Alamar Blue assay; format: cell-based
Experimental: as §1, §2, §3

[5] = test system: BT-474 (ErbB2-expressing) cells; assay: Cytotoxic activity, Alamar Blue assay; format: cell-based; conditions: ADC3 study, read-out: Relative IC50 at 96 h (day 4)
Experimental: as §1
as §2, with “log-dilution). […]” for “log-dilution).”

[6] = MDA-MB-231, run 1, 96 h, ADC1 study
[7] = MDA-MB-231, run 2, 96 h, ADC1 study
[8] = SK-OV-3, run 1, 96 h, ADC1 study, read-out: Relative IC50 at 96 h (day 4)
[9] = SK-OV-3, run 2, 96 h, ADC1 study, read-out: Relative IC50 at 96 h (day 4)
[10] = SK-BR-3, run 1, 96 h, ADC1 study, read-out: Relative IC50 at 96 h (day 4)
[11] = SK-BR-3, run 2, 96 h, ADC1 study, read-out: Relative IC50 at 96 h (day 4)

| Substance | affinity and specificity for ErbB2 expressing cells compared with trastuzumab [1] | pIC50 [2, 6] | pIC50 [2, 7] | pIC50 ([3]; SK-OV-3, run 1, 96 h (FIG. 59a), read-out: IC50) | pIC50 [3, 8] | pIC50 ([3]; SK-OV-3, run 2, 96 h (FIG. 59a), read-out: IC50) | pIC50 [3, 9] | pIC50 ([4]; SK-BR-3, run 1, 96 h (FIG. 59b), read-out: IC50) | pIC50 [4, 10] | pIC50 ([4]; SK-BR-3, run 2, 96 h (FIG. 59b), read-out: IC50) | pIC50 [4, 11] | pIC50 ([2]; MDA-MB-231, run 1, 96 h, ADC3 study) | pIC50 ([2]; MDA-MB-231, run 2, 96 h, ADC3 study) | pIC50 ([5]; BT-474, run 1, 96 h) | pIC50 ([5]; BT-474, run 2, 96 h) |
| --- | --- | --- | --- | --- | --- | --- | --- | --- | --- | --- | --- | --- | --- | --- | --- |
| AF-Arg-Lys(PEG4-Mal-trastuzumab)-Phe-OH [ADC1] | same affinity and specificity | 9.89 | 7.63 | 10.46 | 10.46 | 10.03 | 10.03 | 10.83 | 10.83 | 10.36 | 10.36 |  |  |  |  |
| trastuzumab: Herceptin (Trastuzumab) from Roche Pharma; humanized anti-HER2 (anti-ErbB2) monoclonal antibody [reference compound] |  | 8.67 | 7.96 |  | ~6.10 |  | ~4.79 |  | 6.12 |  | 1.81 | 5.97 | 6.16 | 9.24 | 8.34 |
